# Laboratory results taken from ChEMBL document CHEMBL5113516, “2-(Fluoromethoxy)-4'-(S-methanesulfonimidoyl)-1,1'-biphenyl (UCM-1306), an Orally Bioavailable Positive Allosteric Modulator of the Human Dopamine D1 Receptor for Parkinson's Disease” (J Med Chem, 2022).
# Amino acid sequences for entries named in this document (tags omitted).
# UniProt P21728, whole entry: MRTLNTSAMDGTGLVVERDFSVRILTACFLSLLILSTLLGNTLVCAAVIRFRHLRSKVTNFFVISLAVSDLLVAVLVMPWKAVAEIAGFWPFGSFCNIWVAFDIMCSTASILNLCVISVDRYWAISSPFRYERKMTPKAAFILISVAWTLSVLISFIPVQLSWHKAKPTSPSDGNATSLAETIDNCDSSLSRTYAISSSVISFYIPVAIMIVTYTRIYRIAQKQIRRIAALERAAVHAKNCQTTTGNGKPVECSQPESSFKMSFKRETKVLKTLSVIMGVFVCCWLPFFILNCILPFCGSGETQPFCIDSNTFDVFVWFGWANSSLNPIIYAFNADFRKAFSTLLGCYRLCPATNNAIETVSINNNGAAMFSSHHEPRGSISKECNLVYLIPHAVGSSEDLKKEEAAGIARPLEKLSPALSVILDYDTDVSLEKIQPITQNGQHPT
# Target: D(1A) dopamine receptor (Homo sapiens) (UniProt P21728)
# Test: Positive allosteric modulation of D1R (unknown origin) expressed in mouse CAD cells assessed as potentiation of DA-induced cAMP production relative to control
# Format: functional, cell-based
# Conditions: filed as positive allosteric modulator, dose 0.1-10 µM
smiles,measurement,value
O=Cc1ccc(-c2ccccc2OCF)cc1,Activity,Dde
